Experimental data taken from patent US10933032B2, “Methods for the treatment of cancer using coenzyme Q10 combination therapies” (Berg LLC, priority 2013, dated 2021).

Columns and labels:
MCF-7 Breast = experiment: Viable cell numbers, cotreatment or pretreatment with CoQ10
[1] = test system: SKOV3 ovarian cancer cells; experiment: as above
[2] = test system: MDA-MB231 breast cancer cells; experiment: Number of viable cells; settings: MB231 TNBC; chemotherapeutic agent with CoQ10
[3] = test system: SK-Br3 breast cancer cells; experiment: In vitro cell viability / viable cell number; type: cell-based, Human; settings: SkBr-3 Breast; chemotherapeutic agent with CoQ10
Procedure: Cell lines (e.g., MIAPaCa-2, Hep3B, and/or SK-Br3) cell lines were maintained in culture using standard culture conditions for each cell line. Cells were treated with CoQ10 or the indicated chemotherapeutic agents at the indicated concentrations for the indicated times. After the predetermined incubation time, the cells were stained to distinguish between viable and non-viable cells using routine methods. Cells were counted by microscopy or flow cytometry. The number of cells after treatment were normalized to the number of cells in the untreated sample.
Specifically, to assess the efficacy of CoQ10 in combination with gemcitabine in vitro, MIAPaCa-2 pancreatic carcinoma cells were maintained in culture and exposed to increasing concentrations of gemcitabine in combination with CoQ10, the 4% CoQ10 intravenous formulation, or the excipient of the CoQ10 intravenous formulation. […] The combination treatment with gemcitabine and the 4% CoQ10 intravenous formulation results in an increase in cell death as compared to gemcitabine treatment alone.
To assess the efficacy of CoQ10 in combination with doxorubicin in vitro, MIAPaCa-2 pancreatic carcinoma cells were maintained in culture and exposed to increasing concentrations of gemcitabine in combination with CoQ10, the 4% CoQ10 intravenous formulation, or the excipient of the CoQ10 intravenous formulation. […]

Measured: Cell/chemotherapeutic agent combinations that significantly reduced viable cell numbers

4-Hydroxy-cyclophosphamide
Co: MCF-7 Breast | [1] | [2] | [3]
